# Test results reported in paper PMC5050167 (Bioorganic & medicinal chemistry letters, 2016).
# Sequences of proteins named here, by UniProt entry; tags and fusion partners are left off.
# UniProt P03070, whole entry: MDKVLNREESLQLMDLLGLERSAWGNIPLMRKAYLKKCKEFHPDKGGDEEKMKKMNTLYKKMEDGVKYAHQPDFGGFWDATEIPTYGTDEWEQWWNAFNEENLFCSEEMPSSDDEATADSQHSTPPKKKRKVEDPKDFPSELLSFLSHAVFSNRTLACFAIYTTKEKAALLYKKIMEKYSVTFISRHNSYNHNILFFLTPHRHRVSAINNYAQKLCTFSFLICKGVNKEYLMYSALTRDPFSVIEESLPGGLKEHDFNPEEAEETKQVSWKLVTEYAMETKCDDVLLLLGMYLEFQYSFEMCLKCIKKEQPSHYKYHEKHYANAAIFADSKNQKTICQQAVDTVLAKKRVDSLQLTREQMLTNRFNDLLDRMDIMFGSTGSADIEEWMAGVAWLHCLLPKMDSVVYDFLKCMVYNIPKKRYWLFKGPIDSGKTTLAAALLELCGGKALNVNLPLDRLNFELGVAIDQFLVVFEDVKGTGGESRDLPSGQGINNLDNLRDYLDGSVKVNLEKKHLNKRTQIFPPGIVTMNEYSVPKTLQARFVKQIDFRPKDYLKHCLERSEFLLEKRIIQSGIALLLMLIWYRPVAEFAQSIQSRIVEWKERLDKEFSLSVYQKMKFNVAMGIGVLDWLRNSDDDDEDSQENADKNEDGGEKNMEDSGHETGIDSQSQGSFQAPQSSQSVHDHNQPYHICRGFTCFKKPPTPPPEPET
# Biological target: T antigen (Simian virus 40, UniProt P03070)
# Test: ATPase activity of purified T antigen
# Format: biochemical, polyomavirus
# Conditions: compound 10 μM, normalized to DMSO, mean of 3 experiments
compound,measurement,value
CC1=C(C(=O)OCc2ccccc2)C(c2ccc(-c3ccccc3C)cc2)NC(=O)N1Cc1ccc(-c2nnn[nH]2)cc1 (stereo not shown) [SMAL],Fold change in ATPase activity of T antigen,−4.3 fold
